Data on one compound can be found in ChEMBL document CHEMBL3739358 (J Med Chem, 2015).

The chains behind the UniProt entries cited, without tags or fusion partners.
UniProt P35462, whole entry: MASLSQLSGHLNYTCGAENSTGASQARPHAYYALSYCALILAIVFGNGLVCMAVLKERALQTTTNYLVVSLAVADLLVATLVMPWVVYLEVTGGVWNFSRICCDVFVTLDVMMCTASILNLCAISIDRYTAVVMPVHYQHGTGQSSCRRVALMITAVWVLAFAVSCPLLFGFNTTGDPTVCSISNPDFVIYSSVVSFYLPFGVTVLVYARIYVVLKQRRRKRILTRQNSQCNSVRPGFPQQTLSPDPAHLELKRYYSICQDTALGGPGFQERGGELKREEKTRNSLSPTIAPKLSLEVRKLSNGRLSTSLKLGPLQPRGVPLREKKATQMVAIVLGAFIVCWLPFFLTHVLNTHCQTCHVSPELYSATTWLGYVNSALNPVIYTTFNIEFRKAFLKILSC

The target of the experiment is D(3) dopamine receptor (Homo sapiens, UniProt P35462). The experiment can be described thus: Agonist activity at human D3 receptor expressed in CHO cells by [35S]GTPgammaS binding assay. In kind it is functional, cell-based. On the technique in general: GTPγS resists hydrolysis and so accumulates on activated G proteins.

As usually defined, the EC50 is the concentration at which the effect is half-maximal. Compound `CCCN1CCC[C@@H](c2cccc(O)c2)C1` [PRECLAMOL] came in with an EC50 of 51.9 nM.
